Source: patent US11278504B1, “Treatment of a lionfish sting and formulations for use thereof” (priority 2019, dated 2022)

Amino acid sequences for entries named in this document (tags omitted).
UniProt P32299, whole entry: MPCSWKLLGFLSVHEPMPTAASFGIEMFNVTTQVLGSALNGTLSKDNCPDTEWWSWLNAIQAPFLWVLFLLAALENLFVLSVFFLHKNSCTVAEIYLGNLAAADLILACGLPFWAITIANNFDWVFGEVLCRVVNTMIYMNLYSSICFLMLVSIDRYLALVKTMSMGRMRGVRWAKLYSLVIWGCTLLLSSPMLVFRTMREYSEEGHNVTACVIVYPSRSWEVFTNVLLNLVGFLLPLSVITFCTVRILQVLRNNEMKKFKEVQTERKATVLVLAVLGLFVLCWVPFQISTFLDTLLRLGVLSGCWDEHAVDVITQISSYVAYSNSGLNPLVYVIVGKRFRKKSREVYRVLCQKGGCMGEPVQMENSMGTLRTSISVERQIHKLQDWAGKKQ
UniProt P30411, whole entry: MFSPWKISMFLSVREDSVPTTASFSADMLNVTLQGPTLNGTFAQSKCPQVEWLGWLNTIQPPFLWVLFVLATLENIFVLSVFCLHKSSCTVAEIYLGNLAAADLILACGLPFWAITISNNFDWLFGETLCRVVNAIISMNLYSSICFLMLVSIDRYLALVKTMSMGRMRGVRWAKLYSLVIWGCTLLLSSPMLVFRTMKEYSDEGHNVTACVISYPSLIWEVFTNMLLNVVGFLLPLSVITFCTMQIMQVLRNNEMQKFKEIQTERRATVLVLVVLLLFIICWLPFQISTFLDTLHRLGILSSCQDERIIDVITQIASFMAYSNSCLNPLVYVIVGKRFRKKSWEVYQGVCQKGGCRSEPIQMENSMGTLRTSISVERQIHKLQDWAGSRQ

Legend:
[1] = target: T1, bradykinin (BK) receptors (Mus musculus, UniProt P32299); assay: Venom-induced spontaneous pain behavior in mice pretreated with HOE-140; type: in vivo; conditions: 0.1 μmol/kg intraperitoneal; 44 μg venom intraplantar; P=0.067 vs saline
T1 construct: venom-elicited behavioral and cellular responses are independent of the TRPV1 or bradykinin (BK) receptors; from tissue; host or cells: living C57BL/6 mice (whole animal, behavioural read-out)

bradykinin B2 receptor = target: T2, bradykinin B2 receptor (Homo sapiens, UniProt P30411); assay: Fura-2 calcium imaging in HEK293T cells, bradykinin B2 receptor antagonist test; type: cell-based; conditions: HOE-140 1 mM
T2 construct: Proportion of HEK293T cells responding to BK alone and in the presence of HOE-140; endogenous in cells; host or cells: HEK293T

HOE-140
venom-elicited spontaneous pain behavior over 1 hour after HOE-140 pretreatment [1]: independent | Proportion of HEK293T cells responding to BK in the presence of HOE-140 (bradykinin B2 receptor; BK 100 μM): 0/85 | effect on BK-elicited rise in intracellular calcium (sample traces) (bradykinin B2 receptor; BK 100 μM): reversible blockade | proportion of HEK293T cells responding to the venom in the presence of HOE-140 (bradykinin B2 receptor; Fisher exact test P=0.939): 66/85
